The text below walks through data of ChEMBL document CHEMBL1134416, “Statistical molecular design, parallel synthesis, and biological evaluation of a library of thrombin inhibitors” (J Med Chem, 2001).

The target in test [1] is T1, Prothrombin (Homo sapiens, UniProt P00734). Description: (§1) Inhibitory activity against thrombin. A digest of the protocol: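 Human α-thrombin at 0.02 NIH U/mL assay level in 0.05 M Tris-HCl pH 7.4, I = 0.15, with 1 g/L BSA. Ten inhibitor levels spanning 0.06 nM–133 µM, diluted from 0.1 mM DMSO stocks. Substrate pyroGlu-Pro-pNA (S-2366) at 0.3 mM assay level; A405 read after 40 min. IC50 taken from dose-response curves. Ki = IC50/(1+[S]/Km), Km 0.33 mM.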

Test [2] has as its target T1, Prothrombin. Described as §1. This is another data set of the same source.

SMILES strings stand for the structures. pIC50: −log10 of the molar value.

`CCc1cc(OCCc2ccc(C(=N)N)c(O)c2)cc(OS(=O)(=O)c2cc(Cl)cc(Cl)c2OC)c1` had a negative-log IC50 (pIC50) against Prothrombin [1] of 6.54. Still for that read-out and setting: the result for `CCc1cc(OCCc2ccc(CN)cc2)cc(OS(=O)(=O)c2cc(C)ccc2OC)c1` reads 5.50. For the compound `COc1c(Cl)cc(Cl)cc1S(=O)(=O)Oc1cc(C)cc(OCCc2cccc(O)c2)c1`, the negative-log IC50 (pIC50) against Prothrombin [2] was 4.25.
